Experiments:
[1] = biological target: T1, CFD (Homo sapiens, UniProt P00746); assay: Inhibitory effect on CFD; assay type: biochemical
[2] = biological target: T1, CFD; assay: biochemical

Protein sequences, listed by entry. Tags and fused reporters are not part of them. Residues count along the entry.
UniProt P00746, 26-253: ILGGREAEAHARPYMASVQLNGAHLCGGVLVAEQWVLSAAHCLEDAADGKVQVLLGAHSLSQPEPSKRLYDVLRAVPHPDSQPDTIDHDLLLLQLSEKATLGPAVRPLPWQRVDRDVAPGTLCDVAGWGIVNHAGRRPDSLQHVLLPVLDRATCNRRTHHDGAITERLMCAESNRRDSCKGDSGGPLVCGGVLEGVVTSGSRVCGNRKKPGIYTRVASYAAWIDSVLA

CC(=O)c1nn(CC(=O)N2C[C@H](F)C[C@H]2C(=O)Nc2cccc(Br)n2)c2ccc(-c3cnc(C)nc3)cc12 [Compound 1, (2S,4R)-1-(2-(3-Acetyl-5-(2-methylpyrimidin-5-yl)-1H-indazol-1-yl)acetyl)-N-(6-bromopyridin-2-yl)-4-fluoropyrrolidine-2-carboxamide]
IC50 [1]: 0.54 nM | IC50 [2]: 25 nM
